Reference: article PMC12261228 (ACS Pharmacology & Translational Science, 2025)

Legend:
CEM-DNR = assay: MTS cytotoxicity assay, 72 h; format: cell-based; conditions: read-out: IC50 CEM-DNR, daunorubicin-resistant, 3-day incubation, mean ± SD
K562-TAX = assay: MTS cytotoxicity assay, 72 h; format: cell-based; conditions: read-out: IC50 K562-TAX, paclitaxel-resistant, 3-day incubation, mean ± SD
panel of cell lines = conditions: for RI (resistance index): (IC50 of CEM-DNR, K562-TAX)/(IC50 of CCRF-CEM, K562); for SI (selectivity index): (mean IC50 of BJ and MRC-5)/(mean IC50 of CCRF-CEM, K562, HCT116, HCT116p53–/–, U2OS)

Structure (SMILES) | IC50 (CEM-DNR) [nM] | IC50 (K562-TAX) [nM] | RI (resistance index) (panel of cell lines) | SI (selectivity index) (panel of cell lines)
COc1cc2c(c(OC)c1OC)-c1ccc(OC)c(=O)cc1[C@@H](n1cc(CCCC3=C4C(C)=CC(C)=[N+]4[B-](F)(F)n4c(C)cc(C)c43)nn1)CC2 [CB4] | 360 | 190 | 5.05 | > 533
COc1cc(C2=C3C(C)=CC(C)=[N+]3[B-](F)(F)n3c(C)cc(C)c32)ccc1OCc1cn([C@H]2CCc3cc(OC)c(OC)c(OC)c3-c3ccc(OC)c(=O)cc32)nn1 [CB6] | 500 |  | 5.30 | > 172
